“And” between values parts separate entries of the source, which are not always exact repeats. Identical values can stand only once.
Molecular target: full-length yeast Hsp90 (Hsp82) (yeast, UniProt P02829)
Assay: fluorescence polarisation

B1: human Tau isoform D (natural protein)
chain: not shown
modifications: ATTO 488 N-hydroxysuccinimide ester on the N terminus (anisotropy and AUC); 15N-labeled in the Tau-observed NMR experiment
Kd: 5.3 µM and 5 µM and 5.4 µM and 5.5 µM
